From US20240058450A1, “BCL-XL Inhibitory Compounds Having Low Cell Permeability and Antibody Drug Conjugates Including the Same” (AbbVie Inc., priority 2014, published 2024)

Amino acid sequences for entries named in this document (tags omitted).
UniProt Q07817, whole entry: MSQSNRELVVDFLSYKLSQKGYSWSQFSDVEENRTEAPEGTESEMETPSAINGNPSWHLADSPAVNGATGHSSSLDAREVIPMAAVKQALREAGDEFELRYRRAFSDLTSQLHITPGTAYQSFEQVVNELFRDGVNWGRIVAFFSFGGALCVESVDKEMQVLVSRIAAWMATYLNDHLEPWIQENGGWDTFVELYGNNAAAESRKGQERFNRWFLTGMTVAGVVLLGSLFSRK

Legend:
[1] = test system: Molt-4 human acute lymphoblastic leukemia cells; assay: Molt-4 cell viability assay (CellTiter-Glo, 48 hours, 10% HS); details: read-out: Molt-4 Viability EC50 (nM, 10% HS), non-permeabilized cells
Experimental: The ability of Bcl-xL inhibitors that are able to traverse cell membranes to inhibit Bcl-xL can be determined in cell-based killing assays using a variety of cell lines and mouse tumor models. For example, their activity on cell viability can be assessed on a panel of cultured tumorigenic and non-tumorigenic cell lines, as well as primary mouse or human cell populations.
In one exemplary set of conditions, Molt-4 (ATCC, Manassas, VA) human acute lymphoblastic leukemia cells were plated 12,500 cells per well in 384-well tissue culture plates (Corning, Corning, NY) in a total volume of 25 μL tissue culture medium supplemented with 10% human serum (Sigma-Aldrich, St. Louis, MO) and treated with a 3-fold serial dilution of the compounds of interest from 10 μM to 0.0005 μM. Each concentration was tested in duplicate at least 3 separate times. The number of viable cells following 48 hours of compound treatment was determined using the CellTiter-Glo®, Luminescent Cell Viability Assay according to the manufacturer's recommendations (Promega Corp., Madison, WI). Compounds were tested in the presence of 10% HS.

[2] = test system: permeabilized Bcl-xL dependent Molt-4 cells; assay: Cytochrome C release in selectively (digitonin) permeabilized Molt-4 cells; details: read-out: Molt-4 Permeabilized Cyt C Release, 4 h treatment
From the text: The permeabilization of the mitochondrial outer membrane to release proteins from the intermembrane space into the cytosol is a pivotal event in the process of apoptosis. Specifically, the release of cytochrome C triggers the formation of the apoptosome which, in turn, results in caspase activation and other events that will commit the cell to undergo programmed cell death (Goldstein el al., 2005, Cell Death and Differentiation 12:453). The process of mitochondrial outer membrane permeabilization (MOMP) is controlled by the Bcl-2 family members. It is promoted by the multidomain pro-apoptotic proteins Bax and Bak which, upon activation, oligomerize on the outer mitochondrial membrane and form pores to ultimately release cytochrome C. This action is antagonized by the antiapoptotic members, including Bcl-2 and Bcl-xL. […] This process of cytochrome C release can be measured in cells via Western blot of both mitochrondrial and cytosolic fractions, and can be used a proxy measurement of apoptosis in cells. […]
To determine if Bcl-xL inhibitors were inducing cell death through apoptosis, cytochrome C release was measured in Bcl-xL dependent Molt-4 cells following treatment Specifically, 1×10^6 cells were treated for 4 h (37° C., 5% CO2) with the test compounds in half-log dilutions starting at 3.0 μM and ending at 0.01 μM. […]

Bcl-xL = Bcl-xL (Homo sapiens, UniProt Q07817); assay: Time Resolved-Fluorescence Resonance Energy Transfer (TR-FRET) binding assay, competition with probe F-Bak
Experimental: Tb-anti-GST antibody was purchased from Invitrogen (Catalog No. PV4216).
For the assay, test compounds were serially diluted in DMSO starting at 50 μM (2× starting concentration; 10% DMSO) and 10 μL transferred into a 384-well plate. 10 μL of a protein/probe/antibody mix was then added to each well at final concentrations listed below:
The samples were then mixed on a shaker for 1 minute and incubated for an additional 2 hours at room temperature. For each assay plate, a probe/antibody and protein/antibody/probe mixture were included as a negative and a positive control, respectively. Fluorescence was measured on the Envision (Perkin Elmer) using a 340/35 nm excitation filter and 520/525 (F-Bak) and 495/510 nm (Tb-labeled anti-his antibody) emission filters. Dissociation constants (Ki) were determined using Wang's equation (Wang, 1995, FEBS Lett. 360:111-114). The TR-FRET assay can be performed in the presence of varying concentrations of human serum (HS) or fetal bovine serum (FBS). Compounds were tested both without HS and in the presence of 1% HS.

EC50 [1]: 89 nM
EC50 [2]: < 0.5 nM
Ki (Bcl-xL; read-out: Bcl-xL Binding Ki (nM, 1% HS), in the presence of 1% HS): 0.052 nM
Ki (Bcl-xL; read-out: Bcl-xL Binding Ki, without HS): < 0.001 nM
SMILES: Cc1c(-c2ccc(N3CCc4cccc(C(=O)Nc5nc6ccccc6s5)c4C3)nc2C(=O)O)cnn1CC12CC3(C)CC(C)(C1)CC(OCCNCCCS(=O)(=O)O)(C3)C2 [Example 1.5, 6-[8-(1,3-benzothiazol-2-ylcarbamoyl)-3,4-dihydroisoquinolin-2 (1H)-yl]-3-{1-[(3,5-dimethyl-7-{2-[(3-sulfopropyl)amino]ethoxy}tricyclo[3.3.1.1^3,7]dec-1-yl)methyl]-5-methyl-1H-pyrazol-4-yl}pyridine-2-carboxylic acid]

Read-outs that look alike come from different tables or passages of the source.
